The subject of assay [1] is STZ diabetic C57BL/6 mice. The assay is described as follows: Intraportal allogeneic islet transplantation, SA-FasL and IL-2. The following applies: soluble IL-2 with SA-FasL on the surface of islet. The class given is in vivo. The protocol: FIG. 6A-B. Combined use of SA-FasL and IL-2 prevents allogeneic islet graft rejection. BALB/c islets were transplanted intraportally into STZ diabetic age-matched males and females C57BL/6 mice. Recipients were treated with the indicated regimens of SA-FasL and IL-2 and monitored for graft rejection. In selected groups islets were either engineered with SA-FasL (SA-FasL-islet) or both SA-FasL and SA-IL2 (SA-FasL/SA-IL2-islet. Mice injected with soluble SA served as controls. Control islet and islet+IL-2 groups are the same for both panels for comparison purposes.
C57BL/6 mice were treated with intravenous injection of streptozotocin (200 mg/kg) and diabetes was confirmed by two consecutive blood glucose readings higher than 300 mg/dl. Pancreatic islets were harvested from BALB/c mice, cultured overnight, and then either left unmodified or engineered with SA-FasL alone or in combination with SA-IL2. These islets were then immediately transplanted intraportally into diabetic mice (450-550 islets/mouse). Mice were then treated with the indicated proteins and doses. Animals were monitored for diabetes, and those with two consecutive daily measurements of ≥250 mg/dl blood glucose level were considered diabetic and confirmation of graft failure. […] Importantly, co-display of both SA-FasL and SA-IL2 was also effective in preventing rejection of ˜40% of grafts (FIG. 6B).

Assay [2] deals with C57BL/6 recipients of allogeneic BALB/c hearts. The assay is described as follows: Cardiac allograft survival, BALB/c-to-C57BL/6 model. The format is in vivo, mice. The protocol: FIG. 7. Synergy between SA-FasL and IL-2 in inducing tolerance to cardiac allografts in the BALB/c-to-C57BL/6 model. C57BL/6 recipients of allogeneic BALB/c hearts were treated i.p. with the indicated doses of IL-2 and SA-FasL and mice were monitored for graft survival.
We next tested if SA-FasL as a biologic can work as an immunomodulator to prevent rejection of vascularized solid grafts. Heart transplantation from BALB/c into C57BL/6 mice was used as a stringent allogeneic heart graft model. C57BL/6 recipients of allogeneic BALB/c hearts were treated with a short course of IL-2 (7 doses) and SA-FasL (15 doses) without any other manipulation. […] However, the combination of both molecules had robust tolerance effects with only 1 out of 9 grafts showing delayed rejection, whereas the rest survived for a 100-day observation period (data is from >3 independent experiments and hearts were scored in blind fashion by 2 individuals).

In the case of “IL-2: human IL-2 obtained commercially or produced in house in insect cells with a 6xHis tag”, the “prevention of graft rejection” value in assay [1] is “prevent graft rejection in all graft recipients”. Moreover, in assay [2] (IL-2 7 doses or SA-FasL 15 doses i.p., no other manipulation), the “effect on cardiac graft survival, monotherapy” value is reported as “did not have a significant effect”. The induction of tolerance result in assay [2] (IL-2 by itself) is “no effect on inducing tolerance”.

(Values after US12023367B2, “Immunomodulation for the long term prevention and treatment of autoimmune diseases and foreign tissue rejection” (University of Louisville Research Foundation, Inc., priority 2015, dated 2024).)
